Measured affinities in a library of Ab-14 light chain variants

Data: MIT Lincoln Laboratory AlphaSeq set, Li et al. 2023, doi:10.1038/s41467-023-39022-2, as distributed in FLAb.

Target: peptide PDVDLGDISGINAS, taken from heptad repeat 2 (HR2) of SARS-CoV-2 spike.

The variants keep the heavy chain, the linker and the frameworks of Ab-14 (scFv order VH, a (GGGGS)3 linker, VL).
VH: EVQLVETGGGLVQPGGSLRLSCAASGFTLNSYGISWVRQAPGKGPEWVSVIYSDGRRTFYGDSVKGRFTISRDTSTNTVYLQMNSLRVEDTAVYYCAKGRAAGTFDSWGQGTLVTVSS
VL: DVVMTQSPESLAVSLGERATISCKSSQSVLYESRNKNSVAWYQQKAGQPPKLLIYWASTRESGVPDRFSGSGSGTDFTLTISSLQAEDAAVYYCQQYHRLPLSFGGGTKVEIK

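Phage display of a naive human antibody library on the peptide gave the parent. These sequences belong to a second round, designed from the earlier measurements on random variants of the parent. Several design methods are mixed in this list. Affinity was read by AlphaSeq, a pooled yeast mating assay with surface-displayed partners. Mating (16 h, 30 °C) was followed by selection of diploids and sequencing of their barcodes. Read counts were normalised to the haploid input and turned into Kd by a linear fit to BCL2-family pairs of known affinity, for each replicate. The assay was run in six technical replicates.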

The parent's light chain CDRs are KSSQSVLYESRNKNSVA, WASTRES, QQYHRLPLS; each variant's own CDRs replace them letter for letter. Affinities are written as log10 Kd with Kd in nM; a lower number is a better binder. Replicates are averaged; those with no signal do not enter the mean. Where no diploid with the target was found in any replicate, the entry reads "not detected": below detection, most likely a poor binder, though not proof of it.

log10 Kd (nM), mean	replicates with signal	CDR-L1	CDR-L2	CDR-L3
1.09	6 of 6	KSSGPVLYESRNKASVA	QASTRES	QQYCRLPLS
-0.14	6 of 6	KSSLSVDHESRNKNSVA	DASTRES	QQYHRLPLS
1.47	6 of 6	MFSQLVYTGSRTRNAVA	QASTREN	QQYHRLPLS
0.72	6 of 6	MISNVMNTLTRYGNNVA	DLAERED	QQYFRLPLS
0.62	6 of 6	KSSQSVEYESRNKNSVA	GASTRES	QQYHRLPLS
-0.47	6 of 6	KQSWSVLQESRNKNSVA	DASTRES	QQYHRLPLS
-0.12	6 of 6	KLQQMVEYESRNPNSVA	SASTREL	QQYHRLPLS
1.09	6 of 6	KISQSTLYESRNKNSVA	WASTRES	QQGHRLPLS
0.48	6 of 6	QLLGATMQETYNKNSVA	HAETRED	QSYHRLPLS
not detected	0 of 6	SDSQSVLYESRNKNSVA	WGSTRES	QQYCRLPIS
-0.08	6 of 6	KSSISYLYESRNKNSVA	DASTRES	QQYHRLPLS
-0.45	6 of 6	KISQSVLYESRNKNSVA	DASTRES	QQYQRLPLS
2.31	6 of 6	KSSQSVLYESRNKNSVA	WASTRES	QQYHQLPLS
not detected	0 of 6	KSSQSVQYESRNKNSVA	HASTRES	QQYQRLPLP
0.56	6 of 6	VMQMQQDRMQDAAQNIA	GVDMRET	QQYFRLPFL
0.43	6 of 6	KLYQSVLYESRDKNSVA	HASTRED	QQYHRLPLS
1.02	6 of 6	MVNGITDHLSKNTNSVA	ETVTREE	QQYDRLPLS
2.08	6 of 6	KSSQSVLYESRNKNSVA	CASIRES	QQYHRLPLS
0.51	6 of 6	KLKLSNSFSLRGTRAIA	DGSTRAH	QQYHRLPLT
-0.33	6 of 6	KLSQSVLYESRNKNSVA	DASTRMS	QQYHRLPLS
1.35	6 of 6	RLRELNFESGNARNNIA	DAHIHEV	QQYAWLPLC
1.12	6 of 6	HITMGMYVSGRYHSSIA	QAEERAK	QQYDRLPLI
0.72	6 of 6	TISQLMNMGQFAINSVA	QASERSN	QQYDRLPLI
0.55	6 of 6	KSSQSVLYESRNKNSVA	DASTQES	QQYHRLPLS
-0.31	6 of 6	KLSFSNGYEDRNKNSVA	SASQRLM	QQYHRLPLS
-0.51	6 of 6	KSPQSVLYESRNKNNVA	HASTRED	QQYARLPLS
-0.20	6 of 6	KQSQSDLQESRNKNSVA	DASTRES	QQYHRLPLS
-0.20	6 of 6	KLSQEMEYESRNKNSVA	HASERES	QDYHRLPLS
-0.48	6 of 6	KFPQSVWYQSRNKNSVA	DASTRES	QQYERLPLS
1.37	5 of 6	KSSHSVLYESLNKNSVA	WASTRES	QQYHRLPLS
-0.03	6 of 6	KVSQGFLYEERQKNSVA	NASTRES	QQYHRLPLS
-0.11	6 of 6	KVSQSELYESRMKNSVA	NASTRES	QQYHRLPLS
0.02	6 of 6	KQSQAFLYESRNKNSVA	DANTRES	QQYHRLPLS
0.08	6 of 6	HSSPSVLYESRNENSVA	NASTRES	QQYHRLPLS
1.29	6 of 6	KASPSEEYESRNKNSVA	NASTRYS	QQYHRLPLS
0.86	6 of 6	KVQYSMDYESRNKNSVA	EASDRLS	QDYHRLPLS
0.99	6 of 6	KITDHFLGLGNGRQNIA	HAGVAVE	QQYHQLPLA
-0.14	6 of 6	KLSQSMLYESRNKNSVA	NASTREE	QQYHRLPLS
2.03	6 of 6	KSSQSVLKESRNKNSVA	SASTRES	QQYHRLPLS
2.56	5 of 6	TIGQTLMSGVMNRSNVA	EVSERPN	QQYDRLPLA
0.48	6 of 6	MISQSFLIGMKAKNSVA	QTSTRVE	QQYDRLPLI
0.56	6 of 6	KMSQSVLGEQRNKNSVA	WASTRES	QQYHRLPLS
not detected	0 of 6	IVSQLMLWGIHAKNSIA	EAQMRLN	QQYDRLPLM
2.21	3 of 6	KSLISVLDEERNDNSVA	WASHRLS	QQYHRLPLS
2.41	6 of 6	KLLQNVMTEGRLRNNVA	HMTMRED	QQYWRLPLS
0.95	6 of 6	RSSQSVLYESRNKNSVA	SASTRES	QQYHQLPLY
0.65	6 of 6	KSSQSDTPESRNKNSIA	WASQRES	QQYHRLPLS
-0.17	6 of 6	KSGSGVLYESRNKNSVA	GASTRES	QQYHRLPLS
0.90	6 of 6	TITQSMLMTSHHMNSVA	HASTRED	QQYHRLPLI
0.09	6 of 6	KLRQSVLYESRNKNSVA	QASTRES	QQYHRLPLT
0.11	6 of 6	KLQQSVNYESRNKNSVA	NASTRES	QQYHRLPLS
-0.32	6 of 6	KLSQSGLYESRNKNSVA	EASTREV	QQYHRLPLS
2.69	4 of 6	KSSQLVLYESRNKNSVA	WASTRES	QQYHRLPLS
-0.02	6 of 6	KSGQGVLYESRNKNSVA	GASLRES	QQYHRLPLS
0.06	6 of 6	KIDQSELEESRNKNSVA	NATVRED	QQYHRLPLS
0.20	6 of 6	KLASVTGTEKVRGNNVA	EMETREN	QQYNRLPLS
0.43	6 of 6	KISMSYRYEQQEKNSIA	EMTTREE	QSYHRLPLS
0.33	6 of 6	NIYQAMHTLMQNKDNVA	DVTNRTK	QQYFRLPLS
-0.14	6 of 6	KLMNSDLYESRNVNNVA	QASQREL	QQYHRLPLS
0.19	6 of 6	KIGMTLNQLMHHKNNVA	DLVTREQ	QQYHRLPLS
-0.07	6 of 6	KLPQSGLYESRNKNSVA	NASQRES	QQYHRLPLS
1.04	6 of 6	HIQDAEGGLSSQWNSVA	STEERSD	QQYHRLPLS
0.14	6 of 6	KISMLQRFQSEAKNNIA	EMSRREE	QQYHRLPLS
1.04	6 of 6	KLEEEADVITEIGHSVA	EMSMVMD	QQYHRLPLA
0.54	6 of 6	KISESVLFQSRNKNSVA	WGSTRES	QQYHRLPLS
1.55	6 of 6	TISQMLLMQTSHKNSVA	GEEVRYN	QQYHRLPLS
-0.33	6 of 6	KSSQSVPYEDRNKNSVA	NASTRES	QQYHRLPLS
0.04	6 of 6	NFPQEVMYESHFKNNVA	QTSTRES	QQYDHLPLS
1.84	6 of 6	MISQVTGLGQRHRNNVA	QTSMREI	QQYDRLPLI
not detected	0 of 6	KSSQSVVYASRNKNSVA	WASTLQS	QQYHRLPLS

The authors' rule: three or more of the six replicates give a measured affinity, fewer mean a poor binder. Nonspecific signal, from three strains lacking the peptide, appeared in 4% of pairings of all light chain designs, centred on 2.64 (5% of these signals below 1.59); values are not corrected for it. The parent sequence was in this pool as ten entries: three were never detected, three once, and four in most replicates, with averages from 0.34 to 2.37. A sequence measured in both rounds can read differently, since the two assays cover different ranges.